# Measured values: PMC11904594 (Current Research in Microbial Sciences, 2025)
# Test system: 11 bacterial strains (S. aureus, P. aeruginosa, A. baumannii, K. pneumoniae, E. coli)
# Experiment: Antimicrobial activity screening, summary over groups of strains
# Format: cell-based
# Conditions: 50 µg/ml screen; all A. baumannii strains
smiles,measurement,value
CC[C@H](C)[C@H](NC(=O)[C@H](CCC(N)=O)NC(=O)[C@@H](NC(=O)[C@H](C)NC(=O)[C@H](CCC(N)=O)NC(=O)CNC(=O)[C@@H](NC(=O)[C@@H](NC(=O)[C@H](C)NC(=O)[C@@H](NC(=O)[C@H](C)N)C(C)C)C(C)C)C(C)C)[C@@H](C)O)C(=O)N[C@@H](C)C(=O)N[C@@H](CCCCN)C(=O)N[C@@H](CCCCN)C(=O)N[C@@H](CCCCN)C(=O)N[C@@H](CC(C)C)C(=O)N[C@@H](Cc1ccccc1)C(=O)N[C@@H](CCCCN)C(=O)N[C@@H](CCCCN)C(=O)N[C@H](C(=O)N[C@@H](CC(C)C)C(=O)N[C@@H](CCCCN)C(=O)N[C@@H](Cc1ccc(O)cc1)C(=O)N[C@@H](CC(C)C)C(=O)N[C@@H](CCCCN)C(=O)N[C@@H](CC(=O)O)C(=O)N[C@@H](CCC(=O)O)C(=O)N[C@@H](CC(C)C)C(=O)O)[C@@H](C)CC [BP190],growth inhibition of A. baumannii strains,up to 75%
